From patent US20070197610A1, “Benzisoxazoles” (Janssen Pharmaceutica N.V., priority 2004, published 2007)

Protein sequences, listed by entry. Tags and fused reporters are not part of them.
UniProt P00371, whole entry: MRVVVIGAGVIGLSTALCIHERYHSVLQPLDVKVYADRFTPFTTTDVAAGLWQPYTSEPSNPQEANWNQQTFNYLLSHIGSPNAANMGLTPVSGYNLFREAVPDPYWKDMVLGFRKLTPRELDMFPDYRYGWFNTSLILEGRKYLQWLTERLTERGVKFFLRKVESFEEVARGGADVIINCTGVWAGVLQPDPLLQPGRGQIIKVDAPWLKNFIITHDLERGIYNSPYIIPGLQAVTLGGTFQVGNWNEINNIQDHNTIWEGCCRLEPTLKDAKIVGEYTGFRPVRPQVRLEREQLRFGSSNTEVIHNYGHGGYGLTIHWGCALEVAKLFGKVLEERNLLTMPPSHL

Key:
[1] = target: T1, D-amino acid oxidase (DAAO; EC 1.4.3.3) (Sus scrofa, UniProt P00371); test: In vitro inhibition of DAAO using the peroxide method; type: biochemical; conditions: DAAO 2.6 μg/ml, D-Alanine 7.5 mM, 60 minutes at room temperature, absorbance at 492 nm
[2] = target: T1, D-amino acid oxidase (DAAO; EC 1.4.3.3); test: In vitro inhibition of DAAO using the keto acid method; type: biochemical; conditions: DAAO 20 μg/ml, D-Alanine 15 mM, 10 min at room temperature, pH 8.3, absorbance at 450 nm

SMILES	H2O2 method pIC50 [1]	keto acid method pIC50 [2]
Cc1onc(-c2c(Cl)cccc2Cl)c1C(=O)Oc1noc2ccccc12	5.3	5.9
CCn1nc(C)cc1C(=O)Oc1noc2cc(Cl)ccc12	7.5	7.0
